pKi: −log10 of the molar value.
Biological target: Cholinesterase (Homo sapiens, UniProt P06276)
Assay: Binding affinity to human BuChE (unknown origin) assessed as overall carbamolyation rate at 0.01 to 40 nM incubated for 60 mins

Chains of the proteins cited; added tags and fusions are not shown.
UniProt P06276, whole entry: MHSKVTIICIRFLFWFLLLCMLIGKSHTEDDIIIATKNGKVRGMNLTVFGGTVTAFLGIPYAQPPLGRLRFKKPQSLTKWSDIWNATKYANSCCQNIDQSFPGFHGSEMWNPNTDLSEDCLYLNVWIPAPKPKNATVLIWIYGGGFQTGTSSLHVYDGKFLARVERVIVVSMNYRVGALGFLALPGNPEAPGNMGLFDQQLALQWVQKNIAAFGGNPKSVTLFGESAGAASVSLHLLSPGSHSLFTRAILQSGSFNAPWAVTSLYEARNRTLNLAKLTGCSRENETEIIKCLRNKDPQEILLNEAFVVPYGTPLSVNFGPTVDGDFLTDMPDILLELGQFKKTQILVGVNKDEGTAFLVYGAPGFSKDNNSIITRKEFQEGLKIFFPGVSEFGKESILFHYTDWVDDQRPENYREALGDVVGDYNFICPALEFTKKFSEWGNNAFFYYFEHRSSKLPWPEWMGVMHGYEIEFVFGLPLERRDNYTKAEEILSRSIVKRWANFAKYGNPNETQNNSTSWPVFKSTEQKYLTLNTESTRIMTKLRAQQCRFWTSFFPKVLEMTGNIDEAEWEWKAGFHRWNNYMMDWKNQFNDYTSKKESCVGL

In the case of CCN(C)C(=O)Oc1cccc([C@H](C)N(C)C)c1 [3-[(1S)-1-(dimethylamino)ethyl]phenyl N-ethyl-N-methylcarbamate], the pKi was 8.24.

Reference: BindingDB's records for PubMed 39481228 (Anhui Medical University)
